Results taken from US8022215B2, “Fused pyridone M1 receptor positive allosteric modulators” (Merck Sharp & Dohme Corp., priority 2008, dated 2011).

Chains of the proteins cited; added tags and fusions are not shown. Lines headed by an entry give the natural chain unless they say otherwise; changes in a name come on top.
UniProt P11229: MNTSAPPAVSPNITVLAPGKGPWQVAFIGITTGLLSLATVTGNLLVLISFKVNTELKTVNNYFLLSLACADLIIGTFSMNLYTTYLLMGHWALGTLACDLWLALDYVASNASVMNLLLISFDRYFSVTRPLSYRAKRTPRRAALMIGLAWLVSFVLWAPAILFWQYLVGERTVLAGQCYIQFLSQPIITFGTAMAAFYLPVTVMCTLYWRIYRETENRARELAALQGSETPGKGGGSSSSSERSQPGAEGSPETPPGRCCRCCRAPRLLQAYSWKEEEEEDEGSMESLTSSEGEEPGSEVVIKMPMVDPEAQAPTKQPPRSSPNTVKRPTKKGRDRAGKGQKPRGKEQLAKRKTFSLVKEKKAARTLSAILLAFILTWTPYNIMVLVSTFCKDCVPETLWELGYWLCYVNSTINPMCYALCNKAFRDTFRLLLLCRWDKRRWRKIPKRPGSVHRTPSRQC

Target: T1, acetylcholine muscarinic M1 receptor (Homo sapiens, UniProt P11229)
T1 construct: expressed in transfected cells; host or cells: CHOnfat (CHO cells, Geneticin selection)
Assay: muscarinic FLIPR assay: potentiation of acetylcholine (EC20)-stimulated intracellular Ca2+ in CHOnfat/hM1 cells
Type: cell-based
Description: The assay studies the effect of one or several concentrations of test compounds on basal or acetylcholine-stimulated Ca^2+ levels using FLIPR.
Compounds are prepared and subjected to a preincubation period of 4 min. Thereafter, a single EC20 concentration of acetylcholine is added to each well (3 nM final). The intracellular Ca^2+ level of each sample is measured and compared to an acetylcholine control to determine any modulatory activity.
Cells: CHOnfat/hM1, hM2, hM3 or hM4 cells are plated 24 hr before the assay at a density of 18,000 cells/well (100 μL) in a 384 well plate. CHOnfat/hM1 and CHOnfat/hM3 Growth Medium: 90% DMEM (Hi Glucose); 10% HI FBS; 2 mM L-glutamine; 0.1 mM NEAA; Pen-Strep; and 1 mg/ml Geneticin, are added. For M2Gqi5CHOnfat and M4Gqi5CHOnfat cells, an additional 600 μg/ml hygromycin is added.
Buffers. […] Dye Loading Buffer: Assay Buffer plus 1% Fetal Bovine Serum and Fluo-4AM/Pluronic Acid Mixture. […] 20% Pluronic Acid Solution stock, with a concentration of 0.04% in Buffer, 0.02% in Assay.
65 μL of 2 mM Fluo-4AM are mixed with 130 μL of 20% Pluronic Acid. […]
After 60 min, the cells are washed three times with 100 μL of buffer, leaving 30 μL of buffer in each well. […] A signal test to check background fluorescence and basal fluorescence signal is performed. […]
The inflection point is calculated from the FLIPR values and is a measure of activity.

| Compound | EC50 |
| --- | --- |
| O=C(O)c1cn(Cc2ccc(-c3ccccc3)cc2)c2c(c1=O)C(O)CCC2 (centres unmarked) [Example 17, 1-(Biphenyl-4-ylmethyl)-5-hydroxy-4-oxo-1,4,5,6,7,8-hexahydroquinoline-3-carboxylic acid] | 450 nM |
| CC(C)Cn1cc(-c2ccc(Cn3cc(C(=O)O)c(=O)c4c3CCCC4O)cc2)cn1 (centres unmarked) [Example 57] | 199 nM |
